Data as given in patent US6677299B2, “Method to increase cerebral blood flow in amyloid angiopathy” (The Trustee of Columbia University in the city of New York, priority 2000, dated 2004).

By UniProt entry, the sequences of proteins in these tests, tags left out. Residues count along the entry.
UniProt Q62151, 23-402: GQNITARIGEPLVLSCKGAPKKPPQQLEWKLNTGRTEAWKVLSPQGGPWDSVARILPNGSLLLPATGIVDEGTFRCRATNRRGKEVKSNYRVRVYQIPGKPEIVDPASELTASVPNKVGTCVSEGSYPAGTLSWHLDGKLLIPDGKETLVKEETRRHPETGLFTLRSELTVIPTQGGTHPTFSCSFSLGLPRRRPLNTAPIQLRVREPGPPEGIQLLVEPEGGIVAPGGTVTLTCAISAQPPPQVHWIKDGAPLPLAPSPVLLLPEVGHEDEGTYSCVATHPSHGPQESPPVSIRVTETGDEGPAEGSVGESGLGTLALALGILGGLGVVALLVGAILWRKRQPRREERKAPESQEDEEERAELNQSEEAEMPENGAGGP

What was measured:
Type in all cases: in vivo, mice
[1] = molecular target: T1, RAGE (Mus musculus, UniProt Q62151); assay: Brain perfusion model: Aβ binding to brain capillaries and transport across the BBB; conditions: reagent in arterial inflow; 125I-Aβ 4 nM, 10 min
T1 construct: The first set of studies employed synthetic Aβ infused in to wild-type mice; from tissue; host or cells: brain vasculature (blood-brain barrier) of living wild-type mice
Method: FIGS. 1A-1F. […] FIG. 1A and bFIG.
Brain perfusion model. […] Details of the extracorporeal perfusion circuit were as reported elsewhere. ^22,23,38,39 At the start of the perfusion, the contralateral common carotid artery was ligated, and both jugular veins severed to allow free drainage of the perfusate. Brains were perfused with oxygenated perfusion medium at a flow rate of 1 ml/min by peristalitic pump. […] Perfusion pressure and animal's own arterial blood pressure were continuously monitored. Blood gasses pO2, pCO2 and pH and electrolytes in the arterial inflow and in animal's own blood were monitored.
Injection of radioisotopes for transport studies. […] When the effects of different unlabeled molecular reagents were tested, those were injected 5 min prior to tracers injection and than simultaneously with radiolabled ligands. At predetermined times within 10 min mice were sacrificed by decapitation, and brain tissue prepared for radioactivity analysis. TCA and HPLC analysis as we described were used to determine molecular forms of uptake of radiolabeled Aβ by the BBB.^22,23 Capillary-depletion technique was used to separate micravascular pellet from capillary-depleted brain to quantify in vivo binding to microvessels vs. transport into brain parenchyma, as we reported.^22, 23
Mathematical modeling for transport studies. […] The rate of entry (KIN) is computed from eq. […]

[2] = molecular target: T1, RAGE; assay: Cerebral blood flow (CBF) after i.v. administration of Aβ1-40, laser Doppler flowmetry
Method: Cerebral blood flow measurement: CBF was monitored by Laser Doppler Flowmetry (LDF, Transonic BLF21, NY) as we described. ^36LDF probes (0.8 mm diameter) were positioned on the cortical surface 2 mm posterior to the bregma, both 3 and 6 mm to each side of midline. The CBF was also determined by quantitative autoradiography using ^14C-iodoantipryine (IAP) using recently reported modified method in the whole mouse. ^37Briefly, 0.15 μCi ^14C-IAP was injected i.p. and animals sacrificed after 2 min. Blood from the frozen heart was sampled to obtain the final blood ^14C-IAP level. Frozen brains were coronally sectioned at 20 μm and exposed to autoradiographic film along with radioactive ^14C standards. After a 5 day exposure, the film was developed and the resulting images analyzed by quantitative autoradiography to determine levels of ^14C-IAP in individual brain regions. The CBF was calculated as reported:^37,40 F=−λln (1−CIN (T)/λ CPL)/T, where F is the rate of flow per unit mass(^−1), CIN (T) is activity in unit weight of brain at time T, CPL is the concentration of ^14C-IAP in the blood, and λ is the distribution ratio of ^14C-IAP between brain and the perfusion medium or blood at the steady state, i.e. 0.8.

[3] = molecular target: T1, RAGE; assay: Aβ-induced cytokine expression and oxidant stress in brain (TNF-α, IL-6, HO-1) after BBB transport of circulating Aβ1-40
Method: FIGS. 2A-2C. Effect of RAGE blockade on Aβ-induced cytokine expression and oxidant stress in brain after BBB transport of circulating Aβ1-40. Expression of TNF-α mRNA (left) and protein (right) (FIG. 2A), and immunocytochemical detection of IL-6 (FIG. 2B) and HO-1 (FIG. 2C) 15 min following transport of human Aβ1-40 (4 nM) across the BBB in the presence or absence of α-RAGE (40 mg/ml) or sRAGE (40 nM) in the arterial inflow in a brain perfusion model. Graphs in FIGS. 2A-2C illustrate image analysis of immunocytochemical experiments in which mice were treated with either vehicle, Aβ1-40 alone, or Aβ1-40 plus α-RAGE or sRAGE, as indicated.
Brain perfusion model. This model has bee extensively used to determine peptide and protein binding to and transport across the BBB.^22,23,38,39 For intra-arterial brain perfusion technique mice were anesthetized with i.p. ketamine (0.5 mg/kg) and xylazine (5 mg/kg), and the right common carotid artery isolated and connected to an extracorporeal perfusion circuit via fine polyethylene cannula (PE10). […] Perfusion pressure and animal's own arterial blood pressure were continuously monitored. Blood gasses pO2, pCO2 and pH and electrolytes in the arterial inflow and in animal's own blood were monitored. […]
Immunocytochemical analysis: for TNF-α, IL-6 and HO-1 in brains of wild type mice and TgAPPsw+/− mice was performed using standard techniques, as described (26). Briefly, fresh-frozen, acetone-fixed brain sections of wild type and TgAPPsw+/− mice were stained with anti-TNF-a IgG (Santa Cruz), anti-IL-6 IgG (Santa Cruz and anti-HO-1 IgG (StressGen) as primary antibodies. The extent and intensity of staining in cellular elements was quantitated using the Universal Imaging System and NIH imaging systems. The relative intensity of cellular staining in control brain sections was compared to treated brains. Routine control sections included deletion of primary antibody, deletion of secondary antibody and the use of an irrelevant primary antibody.

[4] = after Aβ transport across the BBB

In the case of “sRAGE: soluble receptor for advanced glycation endproduct”, the “effect on Aβ transport into brain (BBB transport of Aβ)” value [1] is reported as “abolished”, the Aβ-induced cerebral vasospasm ([2]; FIG. 3c) is reported as “abolished” and the “CBF changes produced by murine or human Aβ1-40” value ([2]; α-RAGE 1-10 mg/ml, sRAGE 40 nM, CBF values between 30 and 45 min after i.v. administration of peptides) is reported as “blocked”. For the same substance, the “Aβ-induced TNF-β expression” value ([3]; 15 min after transport of circulating Aβ across the BBB) was “abolished”, the “Aβ-induced neuronal expression of HO-1” value [3, 4] was “abolished” and the “Aβ-induced neuronal expression of IL-6” value [3, 4] was “abolished”.
